In PubChem BioAssay AID910 (National Center for Advancing Translational Sciences (NCATS), 2007):
The entries are a selection whose mix differs from that of the whole data set. Activity calls are given as the source filed them. The call rests on the fitted dose curve; in most records, active means well fitted activation curve with a large enough effect; inconclusive means small, poorly fitted or top-dose-only effect; inactive means flat fitted curve, though single readings scatter.

Assay: Confirmation and Secondary Assay for Modulators of Hemoglobin Beta Chain Splicing at IVS2 654 locus;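 further: HeLa cells stably carrying EGFP split by mutant beta-globin IVS2-654 intron; per-well total GFP intensity by laser scanning cytometry after 2-day treatment; % of control where 0% means no effect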
Conditions: HeLa EGFP-654 splicing reporter, GFP fluorescence, 48 h; at 46.1 µM (top of the series) unless noted
Description: NIH Chemical Genomics Center [NCGC] NIH Molecular Libraries Screening Centers Network [MLSCN] MLSCN Grant: 1 X01 MH080684-01 PI Name: Dr. Ryszard Kole NCGC Assay Overview: Modulation of Alternative Splicing as Therapy Abnormal splicing is associated with a number of diseases, including cancer and genetic diseases such as cystic fibrosis, muscular dystrophy and beta-thalassemia. Alteration of disease associated splicing patterns provides a promising target for treatment. […] Mutations in the second intron of the b-globin gene at positions 654 or 705 are clinically relevant and cause mis-splicing which results in an out of frame gene product. […] EGFP-654 HeLa Cells as screen system. HeLa cell lines were stably transfected with a construct in which the EGFP (enhanced green fluorescent protein) cDNA was interrupted by the second intron of the beta-globin gene (IVS2-654). The ISV2 intron contains mutations which cause mis-splicing of EGFP and premature termination of EGFP which results in a nonfluorescent protein product. […]
NCGC Assay Protocol Summary: Confirmatory Screening. […] Plates were read in the Acumen Explorer (TTP Labtech) using 488 nm laser excitation and 500-520 nm emission PMT filter in a 1 x 8 uM capture mode. Fluorescnet objects ranging in size from 5 to 250 uM were measured and the total peak GFP intensity for each well was used for data analysis. […]

SMILES	activation (splicing correction)
CCN(CCCl)Cc1ccccc1C	inactive: 0.322% [at 38.3 µM]
OCCSCCO	inactive: 1.17%
